Reference: ChEMBL document CHEMBL1201862, “PubChem BioAssay data set” (2004)
This is one part of the list. These assays gave more results; the selection is not random. Active and inactive are the calls of the source. The rule behind the calls is not given here.

The molecules below were run against Guanine nucleotide-binding protein G(s) subunit alpha isoforms short (Homo sapiens) (UniProt P63092) (assay: qHTS for Agonist of gsp, the Etiologic Mutation Responsible for Fibrous Dysplasia/McCune-Albright Syndrome: qHTS.).
Assay type: functional
In the case of CCC(=O)N1C2C3N(C(=O)CC)C1C1N(C(=O)CC)C(C(N1C(=O)CC)N3C(=O)CC)N2C(=O)CC, the Potency is reported as “inactive”. In the case of C[As](=O)(O)c1cccc(C(=O)O)c1, the Potency is reported as “inactive”. CC(C)(C)C(=O)NC(Sc1ncccn1)C(Cl)(Cl)Cl (stereo not given) was tested, and the Potency was “inactive”. CN(C)P(=O)(N(C)C)n1c(Nc2ccccc2)nnc1-c1ccccc1 was tested, and the Potency was “inactive”. O=C(OC1CN2CCC1CC2)c1ccc([N+](=O)[O-])cc1 (stereo not given) was tested, and the Potency was “inactive”. N#C/C(=C\c1ccc(N(CCBr)CCBr)cc1)C(N)=O was tested, and the Potency was “inactive”. For Cc1ccc(C(=O)OC2CN3CCC2CC3)cc1 (stereo not given), the Potency was “inactive”. O=P1(N(CCCl)CCCl)Nc2ccccc2N1 was tested, and the Potency was “inactive”. In the case of O=P(Nc1nccs1)(Oc1ccccc1)Oc1ccccc1, the Potency is reported as “inactive”. CCC(=O)N(c1ccccc1)C1CCCCC1 was tested, and the Potency was “inactive”. With COc1ccccc1CNC(=O)COC(=O)C(O)(c1ccccc1)c1ccccc1 the Potency was “inactive”. For CCOP(=O)(Nc1ccccc1)OCC, the Potency was “inactive”. With O=C(OC1CN2CCC1CC2)c1cccc(Cl)c1 (stereo not given) the Potency was “inactive”. In the case of O=C(OC1CN2CCC1CC2)c1ccc(Cl)cc1 (stereo not given), the Potency is reported as “inactive”. In the case of CC(NC(=O)COC(=O)C(O)(c1ccccc1)c1ccccc1)c1ccccc1 (stereo not given), the Potency is reported as “inactive”. In the case of O=[N+]([O-])c1cc([N+](=O)[O-])c(-c2cc[nH]n2)s1, the Potency is reported as “inactive”. CCOP(=O)(NC(=NC(C)c1ccccc1)NC(C)c1ccccc1)OCC (stereo not given) was tested, and the Potency was “inactive”. For CCC(C)N(CC(C)C)C(=S)SC(NC(C)=O)C(Cl)(Cl)Cl (stereo not given), the Potency was “inactive”. Cc1ccc(S(=O)(=O)NCCCCC(NC(=O)OC(C)(C)C)C(=O)O)cc1.c1ccc(Nc2ccccc2)cc1 (stereo not given) was tested, and the Potency was “inactive”. In the case of C[C@H]1OP(=O)(Oc2ccccc2)C[C@@H]2O[C@@H]21 (stereo not given in full), the Potency is reported as “inactive”. For Cc1ccc(OCC(=O)OC2CN3CCC2CC3)cc1 (stereo not given), the Potency was “inactive”. For Cc1cc(O)nc(N[N+](=O)[O-])n1, the Potency was “inactive”. COC(=O)C1(C)COP(=O)(N2CCCCCC2)OC1 (stereo not given) was tested, and the Potency was “inactive”. With O=P1(Nc2nc3ccc(Cl)cc3s2)COc2ccccc2O1 (stereo not given) the Potency was “inactive”. CC(=O)N1C2C3N(C(C)=O)C1C1N(C(C)=O)C(C(N1C(C)=O)N3C(C)=O)N2C(C)=O was tested, and the Potency was “inactive”.
